{
  "source": "patent US12545892B2",
  "about": "“Application of TGF-B inhibitor in inducing neural stem cells and organoid formation” (IREGENE THERAPEUTICS, CO., LTD., priority 2020, dated 2026)",
  "system": "Human pluripotent stem cells",
  "experiment": "CyQuant assay of medium components (cell viability in long-term culture)",
  "assay_type": "cell-based",
  "conditions": "different concentrations, FIG. 2b-2c",
  "experimental": "The Cyquant assay was used to perform the quantitative detection of cell viability, thus investigating the effect of LY2157299 on the physiological state of the cells during long-term culture of the cells; Among them, the LSB method was used as the control group. 96-well light-tight cell culture plates were coated; after the coating was complete, cells were seeded separately at 5×10^4 cell number per well and three sets of parallel replicates were set (the average of three sets was calculated as data) to repeat the procedure of example 2.1. Wherein, the culture procedures described previously were incubated at 37° C. with 5% CO2. Samples were taken on days 1, 5, 10, 15 and 20 for cell viability assay using CyQuant Kit (Invitrogen, cat. No: X12223). The aforementioned assay was operated according to the instructions with a Spectramax i3 Multi-Mode Microplate Reader (VWR, model number: ID3-STD) for data reading. […] Combined with cost factors, the range of recombinant insulin and recombinant serum albumin used by the present invention falls within the range of optimal use.",
  "data": [
    {"substance": "recombinant serum albumin: medium component screened at different concentrations for cell growth", "values": [
      {"measurement": "effect of concentration on cell proliferation (CyQuant)", "value": "positively correlated with the rate of cell proliferation"}
    ]}
  ]
}
